Yeast UUG start: alters start codon recognition fidelity in yeast; S. cerevisiae UUG-firefly luciferase reporter, luminescence/redox ratio; activity score, % at 18.7 µM; hit rate 0.13% among 350,000;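 active = replicate mean at a twofold rise or more, about +100% in these data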;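 also: firefly luciferase made from a UUG start codon reports start codon fidelity; reporter light over untreated wells divided by growth signal over untreated wells; some hits fall short of that in this replicate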
Rce1 inh: inhibitors of yeast Ras-converting enzyme; Q03530; yeast membranes, quenched prenylated peptide cleavage fluorescence; calls only; 0.27% of 290,000 active;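 active means fall in fluorescence gain of 50% or more versus controls, with final raw signal at or below 3038400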;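 further: plate controls were neutral control wells for no effect and wells lacking membranes for full effect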
TbMetRS inhib: blocks T. brucei methionyl-tRNA synthetase activity | purified T. brucei MetRS, ATP depletion, Kinase-Glo luminescence | 0.4% of 360,000 active | inhibition, % at 11.9 µM | AID 624268;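 active means inhibition above a per-plate cutoff of the control wells' mean inhibition plus 3 SD, cut at about 5.5% in these data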;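 further: 0% = DMSO wells median and 100% = median of wells with control inhibitor compound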
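Measured by: Kinase-Glo luciferase luminescence reporting remaining unconsumed ATP. Material: purified T. brucei MetRS enzyme. Doses: 11.9 µM compound single dose, 0.9% DMSO. Medium: HEPES buffer containing pyrophosphatase, BSA, spermine, DTT. Times: 15 min preincubation, 2 h reaction, all 25 °C. Reagent: methionine, ATP and bulk E. coli tRNA.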
Arr AP2 block: blocks beta-arrestin peptide binding to AP2 adaptin. 0.31% of 340,000 active. inhibition, % at 10 µM. FITC-arrestin peptide / GST-AP2 beads, flow cytometry; AP2 beta2 appendage carries R879A mutation;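 active means inhibition above a set limit, near 3 SD of compounds lacking own fluorescence, cut at about 54% in these data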;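 further: plate controls were DMSO wells for no effect and 5 µM unlabelled arrestin peptide for full effect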
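Test system: GST-tagged AP2 beta2-adaptin appendage (R879A) on 4 µm glutathione beads; also added: fluorescein-tagged arrestin peptide at 50 nM final; timing: 12 min plus 1 h, RT; signal: flow cytometry, FL1 (488/535 nm); read-out: percent drop in bead-associated FITC signal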
Pemphigus Ab inh: inhibitors of pemphigus antibody binding to human desmoglein-3; 0.48% of 310,000 active; DSG3-coupled beads, scFv-anti-DSG3-GFP binding, flow cytometry; hits give low values; binding (percent of control), % at 10 µM; AID 588358;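 active means binding more than 3 SD below its plate's average and above zero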;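 further: hits lower antibody fragment binding to DSG3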
Starred values were filed as active, the others as inactive. This is a sample that favours compounds with a hit; in the whole collection about 1.2% have one here.

`Nc1nc(N2CCN(C(c3ccccc3)c3ccccc3)CC2)n[nH]1` gave Rce1 inh inactive, TbMetRS inhib -1, Arr AP2 block 11 and Pemphigus Ab inh 99.
Screening c1ccc(N2CCN(c3nc(NCc4ccco4)c4ccccc4n3)CC2)cc1 returned Yeast UUG start -27, Rce1 inh inactive, TbMetRS inhib -1, Arr AP2 block 2 and Pemphigus Ab inh 122.
For Cc1nc(N2CCCCC2)c2c(C)c(C(=O)Nc3ccccc3C(F)(F)F)sc2n1 the results were Rce1 inh active, TbMetRS inhib -1, Arr AP2 block 17 and Pemphigus Ab inh 86.
Screening N#Cc1c(OCC(=O)c2ccccc2)nc2c(c1-c1ccco1)CCc1ccccc1-2 returned Yeast UUG start -12, Rce1 inh active, TbMetRS inhib 0, Arr AP2 block 8 and Pemphigus Ab inh 98.
CSc1ccc(CNC(=O)Cc2ccc(NC(=O)C3=C(C)OCCS3)cc2)cc1 was read as Yeast UUG start -19, Rce1 inh inactive, TbMetRS inhib 0, Arr AP2 block -7 and Pemphigus Ab inh 54*.
CC1=C(C)C(C)=C(C#N)C(=C(C#N)C#N)N1 was read as Yeast UUG start -23, Rce1 inh active, TbMetRS inhib 0, Arr AP2 block 37 and Pemphigus Ab inh 96.
For Cc1cc(C)c2[nH]c(=O)c(CN(Cc3cccs3)C(=S)NCC3CCCO3)cc2c1 (stereo not given) the results were Yeast UUG start -29, Rce1 inh inactive, TbMetRS inhib 0, Arr AP2 block -12 and Pemphigus Ab inh 85*.
For CCCC(=O)Nc1ccc2c(c1)OC[C@H](C)N(Cc1ccccc1F)C[C@H](C)[C@H](OC)CN(C)C2=O the results were Yeast UUG start 13.
COc1cccc(Nc2cc(C)nc3nc(C)nn23)c1 was read as Yeast UUG start -23, Rce1 inh inactive, TbMetRS inhib 0, Arr AP2 block 23 and Pemphigus Ab inh 109.
COc1cccc(CNc2nc3nc(C)cc(C)n3n2)c1 was read as Rce1 inh active, TbMetRS inhib -1, Arr AP2 block -6 and Pemphigus Ab inh 106.
`CCCNC(=O)N1[C@@H](C#N)[C@@H](c2ccc(C#Cc3ccc(F)cc3)cc2)[C@@H]1CO` gave Yeast UUG start -4.
Screening O=c1cc(N2CCN(c3ccccc3Cl)CC2)[nH]c(=O)n1Cc1ccc(F)cc1 returned Yeast UUG start -19, Rce1 inh inactive, TbMetRS inhib -1, Arr AP2 block 19 and Pemphigus Ab inh 85.

Reprinted from the part before: two compounds, then new ones.
`CCCNC(=O)N1[C@@H](C#N)[C@@H](c2ccc(C#Cc3ccc(F)cc3)cc2)[C@@H]1CO` gave Yeast UUG start -4.
Screening O=c1cc(N2CCN(c3ccccc3Cl)CC2)[nH]c(=O)n1Cc1ccc(F)cc1 returned Yeast UUG start -19, Rce1 inh inactive, TbMetRS inhib -1, Arr AP2 block 19 and Pemphigus Ab inh 85.
COc1ccccc1N1CCN(c2cc(=O)n(Cc3ccc(F)cc3)c(=O)[nH]2)CC1 was read as Yeast UUG start -12, Rce1 inh inactive, TbMetRS inhib 0, Arr AP2 block 9 and Pemphigus Ab inh 69*.
COc1ccc(OC)c(NC(=O)NCCc2cccc(Cl)c2)c1 was read as Rce1 inh inactive, TbMetRS inhib 0, Arr AP2 block 10 and Pemphigus Ab inh 75*.
`COc1cc(OC)cc(-c2ncc3ccccn23)c1` gave Yeast UUG start -17, Rce1 inh active, TbMetRS inhib 0, Arr AP2 block -1 and Pemphigus Ab inh 109.
`C[C@@H]1CCCCO[C@H](CN(C)C(=O)C2CCCCC2)[C@H](C)CN([C@@H](C)CO)C(=O)c2cc(NC(=O)NC3CCCCC3)ccc2O1` gave Yeast UUG start 9.
COc1ccc(-c2nn(-c3ccccc3)cc2/C=N/NC(=O)c2cccc(S(=O)(=O)Nc3ccccc3OC)c2)cc1 was read as Rce1 inh inactive, TbMetRS inhib 0, Arr AP2 block 4 and Pemphigus Ab inh 83*.
Screening O=C(CN1C(=O)NC2(CCCC2)C1=O)OCc1cc(=O)n2cc(Br)ccc2n1 returned Yeast UUG start -12, Rce1 inh inactive, TbMetRS inhib 0, Arr AP2 block 4 and Pemphigus Ab inh 65*.
For Cc1sc2ncn(CC(=O)Nc3c(F)cccc3F)c(=O)c2c1S(=O)(=O)N1CCC(C)CC1 the results were Rce1 inh inactive, TbMetRS inhib 0, Arr AP2 block -13 and Pemphigus Ab inh 55*.
For O=C(Nc1ccccc1-c1ccccc1)c1cccc(C(F)(F)F)c1 the results were Rce1 inh inactive, TbMetRS inhib -1, Arr AP2 block -8 and Pemphigus Ab inh 88.
Screening O=C(Nc1ccc(C(F)(F)F)cc1-c1ccccc1)c1ccccc1 returned Yeast UUG start -11, Rce1 inh inactive, TbMetRS inhib -1, Arr AP2 block 6 and Pemphigus Ab inh 65*.

Source: PubChem BioAssay (several laboratories)
